Yeast mating assay 2: variants of the scFv Ab-95

From the AlphaSeq antibody data of Engelhart et al. 2022 (doi:10.1038/s41597-022-01779-4), copy in the FLAb collection.

All variants were tested on one target, the spike HR2 peptide PDVDLGDISGINAS (SARS-CoV-2).

Ab-95 is the parent antibody, in scFv form: VH, then a 15-residue (Gly4Ser)3 linker, then VL. The heavy chain is unchanged in all variants.
VH: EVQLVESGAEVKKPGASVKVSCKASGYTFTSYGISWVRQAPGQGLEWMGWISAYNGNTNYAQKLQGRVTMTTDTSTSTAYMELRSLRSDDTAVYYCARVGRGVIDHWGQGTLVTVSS
VL: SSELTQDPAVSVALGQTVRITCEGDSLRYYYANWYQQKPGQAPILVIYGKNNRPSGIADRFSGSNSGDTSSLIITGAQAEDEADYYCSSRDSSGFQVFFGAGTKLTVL

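The starting antibody came from a phage panning campaign against this peptide. In library AAYL52, one, two or three CDR residues were substituted; doubles and triples were drawn at random. Affinity was read by AlphaSeq, a pooled yeast mating assay with surface-displayed partners. Pairs that bind mate more often; barcode pairs of the diploids are counted by sequencing. Each replicate has its own calibration line, from reference interactions of the BCL2 family. The assay was run in three technical replicates.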

Each variant is given by its three light chain CDRs, as the data file delimits them; those of the parent are EGDSLRYYYAN, GKNNRPS, SSRDSSGFQVF. Numbers give log10(Kd / nM), so 0 is 1 nM and 3 is 1 µM. Smaller is tighter. A mean of the replicates is given; it leaves out those without a signal. "nd" means that the variant was in the library but no mating with the target was seen in that replicate; the authors take this as a sign of poor binding, and no number exists. As a blank, each scFv also met three strains without target: over library AAYL52, 28% of these pairings were detected, typically at 3.91 and seldom below 2.90. Also given: how often the same scFv was detected with the empty control strains. For reference, the parent read 2.31 as the reference entry and 2.25 as a member of this library.

EGDSSRYYYAN | GKNNTPS | SSRDSSGFVVF: 3.50, nd, nd (controls 1 of 9).
EGDSLRYTGAN | GKNNRPS | SSRDSSGFLVF: 1.30, 1.26, 1.24 (mean 1.27; controls 5 of 9).
HDDSLRNYYAN | GKNNRPS | SSRDSSGFQVF: 2.52, 2.39, 1.99 (mean 2.30; controls 3 of 9).
EGDSKRYYYAN | GKNNRPS | DSRDSSNFQVF: nd, 4.19, nd (controls 1 of 9).
EGDSPRYYYAN | GKNNRPN | SSRDSSGHQVF: nd, 3.62, nd (controls 5 of 9).
EGDSLRYYQRN | GKNNRPS | SSRGSSGFQVF: 3.64, 3.71, 3.36 (mean 3.57; controls 5 of 9).
EGDSLRNYYAN | GKNPRPS | SSRDSSGFQCF: 2.79, 3.10, 2.76 (mean 2.88; controls 2 of 9).
EGDCLRYYYAN | GKNNRPS | SSRDLGGFQVF: 1.42, 1.18, 1.02 (mean 1.21; controls 1 of 9).
EGDSLRYYYAN | GINNRPS | SPRDDSGFQVF: 5.20, nd, 2.88 (mean 4.04; controls 3 of 9).
EGDSLRYYYAN | GKNNRPS | VSRDESGFQLF: 3.39, 2.59, 2.49 (mean 2.82; controls 3 of 9).
EGDSPRYYYAR | GKNNRPS | SSRDSSGFQHF: 4.24, nd, nd (controls 1 of 9).
EGDSLRYYYAN | YKNNRPS | SSLDSCGFQVF: 2.88, nd, 2.95 (mean 2.91; controls 2 of 9).
EGDSLRYYYAN | GKNNRSH | SSRLSSGFQVF: nd, nd, nd (controls 0 of 9).
EGDSYRYYYAN | GKNNCPS | SSRDSSGMQVF: 5.31, nd, nd (controls 2 of 9).
EMDSLRYYYAN | GKNNRPS | ASHDSSGFQVF: 5.51, 3.65, nd (mean 4.58; controls 3 of 9).
EGDSLVYYYAN | GKNNRKS | SSRDSSGFQVP: 4.14, 4.79, nd (mean 4.47; controls 4 of 9).
NGDSLRYYYAN | GKNNRVH | SSRDSSGFQVF: 2.68, 2.89, 2.47 (mean 2.68; controls 1 of 9).
EGQSLRYYYAN | GKNNRAS | SSRDSSGFQVF: 2.39, 2.34, 2.12 (mean 2.29; controls 1 of 9).
EGDSLRYYVAE | GKNNRPS | SSRDSSGMQVF: 3.36, 5.05, nd (mean 4.21; controls 3 of 9).
YGDSLRYYYAN | GKNNRPS | SSRDSNGFQVC: 3.24, 2.52, 3.41 (mean 3.06; controls 3 of 9).
EGDTLRYYYAN | GKNNRPS | SRRDSSGFQVF: nd, nd, nd (controls 0 of 9).
EGDTLRYYYAK | GKNNRPS | SSRDSSGFQVI: nd, nd, nd (controls 0 of 9).
EGDSLWYYYAN | GFVNRPS | SSRDSSGFQVF: nd, nd, nd (controls 0 of 9).
EGASLRYYYAN | LKNNRPR | SSRDSSGFQVF: 4.98, nd, 4.19 (mean 4.59; controls 4 of 9).
ESDSLRYYYAN | GKGNRPS | SSRDESGFQVF: 3.44, 3.95, 3.65 (mean 3.68; controls 2 of 9).
EGDSLRYNYAN | GRNNRPS | SSIDSSGFQVF: 1.60, 1.75, 0.73 (mean 1.36; controls 3 of 9).
YGDPLRYYYAN | GKNNRPS | SSRDSSGFQVF: 2.79, 2.35, 1.76 (mean 2.30; controls 1 of 9).
EGDSLRYYRAN | GKNNRPS | SSRDSSGHQKF: 3.84, nd, 2.81 (mean 3.33; controls 0 of 9).
EGDSLRYYYAN | AKNKRPF | SSRDSSGFQVF: 3.29, 4.08, nd (mean 3.68; controls 5 of 9).
VGDSLRPYYAN | GKNNRPS | SSRDISGFQVF: 2.20, 2.16, 1.43 (mean 1.93; controls 4 of 9).
EGDSLRYMYAN | GKNNRPS | SSRDSSGCQVF: 3.80, 4.34, 3.93 (mean 4.02; controls 4 of 9).
EHDSLRYYYPN | GKNNRPS | SSRASSGFQVF: 2.49, 4.66, nd (mean 3.57; controls 0 of 9).
EHDSLRYYYAN | GKNNRPS | SSRDSNGFQCF: 3.12, 3.29, 4.04 (mean 3.48; controls 2 of 9).
EGTSLRYYYAN | GKNNRPS | SSRDSSGAQVF: 2.71, 2.79, 2.92 (mean 2.81; controls 1 of 9).
EGDSLRYYKAN | GKNNRPS | SKRDSSGFQVF: 2.90, 3.06, 3.52 (mean 3.16; controls 2 of 9).

Extract of 5 entries:

Variant EGDSLRYYYAN | YKNNRPS | SSLDSCGFQVF showed 2.88, nd, 2.95 (mean 2.91; controls 2 of 9).
Variant YGDSLRYYYAN | GKNNRPS | SSRDSNGFQVC showed 3.24, 2.52, 3.41 (mean 3.06; controls 3 of 9).
Variant EGASLRYYYAN | LKNNRPR | SSRDSSGFQVF showed 4.98, nd, 4.19 (mean 4.59; controls 4 of 9).
Variant EGDSKRYYYAN | GKNNRPS | DSRDSSNFQVF showed nd, 4.19, nd (controls 1 of 9).
Variant EGDSLRYNYAN | GRNNRPS | SSIDSSGFQVF showed 1.60, 1.75, 0.73 (mean 1.36; controls 3 of 9).